{"source": "ChEMBL document CHEMBL4406811", "about": "“Optimization and Mechanistic Characterization of Pyridopyrimidine Inhibitors of Bacterial Biotin Carboxylase” (J Med Chem, 2019)", "test_system": "Escherichia coli", "test": "Antibacterial activity against Escherichia coli DM4100 measured after 18 to 20 hrs in presence of permeabilizing agent PMBN by broth microdilution method", "format": "functional", "data": [{"smiles": "NCC1(O)CCN(c2nc3nc(N)ncc3cc2-c2c(Cl)cccc2Cl)C1", "note": "(stereo unspecified)", "values": [{"measurement": "MIC", "result": 8, "unit": "µg/mL"}]}]}
